Earlier results in PMC2783503 (Journal of medicinal chemistry, 2009).
pIC50: −log10 of the molar value.

What was measured:
μ opioid receptor [1] = settings: Ki^μ relative to Ki^δ = 1; ref Schiller et al.[10]; cited from earlier work
κ opioid receptor = settings: Ki^κ relative to Ki^δ = 1; ref Schiller et al.[10]; cited from earlier work
μ opioid receptor [2] = settings: read-out: GPI IC50; ref Schiller et al.[10]; cited from earlier work

## H-Tyr-Tic-Phe-Phe-OH [compound 8]
μ opioid receptor [1]
  Ki ratio δ/μ/κ: μ term: 1410
κ opioid receptor
  Ki ratio δ/μ/κ: κ term: > 820
μ opioid receptor [2]
  pIC50: < 5.00
